The numbers were not newly measured in patent publication US4499094A, “Derivatives of arene and hetero-arene carboxamides and their use as medicaments” (Pharmuka Laboratoires, priority 1982, dated 1985), which cites them from elsewhere.

For this series, the system named is binding sites of (^3 H) diazepam in the brain. As to conditions: cited from earlier work.

Take `O=C1CN=C(c2ccccc2Cl)c2cc([N+](=O)[O-])ccc2N1` [clonazepam]: the “affinity for the binding sites of (^3 H) diazepam in the brain (central level)” value (brain, in words) is recorded as “very strong affinity”. For the same compound, the “classification by decreasing affinity, "cerebral" type” value (rank order) is reported as “clonazepan>diazepam>Ro-5-4864”.
